Read-outs that look alike come from different tables or passages of the source.
Key:
[1] = Blood concentration of TRH, LHRH, glucagon after ocular or i.v. administration (Example 5)
Source text: The concentrations of peptides in the blood were expressed in ng/ml.

[2] = Peptides remaining in eye tissues at the end of 12 hr experiment (Example 5); format: in vivo, New Zealand white female rabbits; conditions: for Residual amount of glucagon remaining in tissues, % of instilled, Total / Residual amount of glucagon remaining in tissues, Amount, Total: TOTAL of eye tissues
[3] = 6 hr; for Residual amount of glucagon remaining in tissues, % of instilled, Total / Residual amount of glucagon remaining in tissues, Amount, Total: Total of eye tissues
[4] = Blood glucagon concentration after ocular or i.v. glucagon (Example 3)

Glucagon
blood glucagon concentration remained at ([1]; 0.625 ug glucagon i.v., for 5 hrs): 0.27 to 0.3 ng/mL
blood glucagon plateau concentration ([1]; 1% glucagon instilled, plateau in 3 hrs): 60 ng/mL
blood glucagon concentration reached ([1]; 5% glucagon instilled, in 4 hrs): 155 ng/mL
Residual amount of glucagon remaining in tissues, % of instilled ([2]; Choroid, 1% glucagon): 0.0056 ± 0.0030%
Residual amount of glucagon remaining in tissues, % of instilled ([2]; Choroid, 5% glucagon): 0.0106 ± 0.0033%
Residual amount of glucagon remaining in tissues, % of instilled ([2]; Ciliary-Body, 1% glucagon): 0.0050 ± 0.0028%
Residual amount of glucagon remaining in tissues, % of instilled ([2]; Ciliary-Body, 5% glucagon): 0.0062 ± 0.0019%
Residual amount of glucagon remaining in tissues, % of instilled ([2]; Cornea, 1% glucagon): 0.0818 ± 0.0427%
Residual amount of glucagon remaining in tissues, % of instilled ([2]; Cornea, 5% glucagon): 0.0880 ± 0.0370%
Residual amount of glucagon remaining in tissues, % of instilled ([2]; Iris, 1% glucagon): 0.0067 ± 0.0043%
Residual amount of glucagon remaining in tissues, % of instilled ([2]; Iris, 5% glucagon): 0.0098 ± 0.0032%
Residual amount of glucagon remaining in tissues, % of instilled ([2]; Lens, 1% glucagon): 0.0449 ± 0.0232%
Residual amount of glucagon remaining in tissues, % of instilled ([2]; Lens, 5% glucagon): 0.0555 ± 0.0255%
Residual amount of glucagon remaining in tissues, % of instilled ([2]; Retina, 1% glucagon): 0.0064 ± 0.0033%
Residual amount of glucagon remaining in tissues, % of instilled ([2]; Retina, 5% glucagon): 0.0068 ± 0.0025%
Residual amount of glucagon remaining in tissues, % of instilled, Total ([2]; 1% glucagon): 0.1504%
Residual amount of glucagon remaining in tissues, Amount, Total ([2]; 1% glucagon): 376.09 ng
Residual amount of glucagon remaining in tissues, % of instilled, Total ([2]; 5% glucagon): 0.1769%
Residual amount of glucagon remaining in tissues, Amount, Total ([2]; 5% glucagon): 2210.57 ng
share of eye-tissue glucagon remaining in the cornea ([3]; 0.2% solution): 71%
total glucagon remaining in the eye tissues except cornea, of quantity instilled ([3]; 0.2% solution): 0.105%
share of eye-tissue glucagon remaining in the cornea ([3]; 1% solution): 84%
total glucagon remaining in the eye tissues except cornea, of quantity instilled ([3]; 1% solution): 0.103%
share of eye-tissue glucagon remaining in the cornea ([3]; 5% solution): 87%
total glucagon remaining in the eye tissues except cornea, of quantity instilled ([3]; 5% solution): 0.123%
Residual amount of glucagon remaining in tissues, % of instilled ([3]; Choroid, 0.2% glucagon): 0.0042 ± 0.0011%
Residual amount of glucagon remaining in tissues, % of instilled ([3]; Choroid, 1% glucagon): 0.0052 ± 0.0018%
Residual amount of glucagon remaining in tissues, % of instilled ([3]; Choroid, 5% glucagon): 0.0046 ± 0.0011%
Residual amount of glucagon remaining in tissues, % of instilled ([3]; Ciliary-Body, 0.2% glucagon): 0.0074 ± 0.0025%
Residual amount of glucagon remaining in tissues, % of instilled ([3]; Ciliary-Body, 1% glucagon): 0.0102 ± 0.0031%
Residual amount of glucagon remaining in tissues, % of instilled ([3]; Ciliary-Body, 5% glucagon): 0.0123 ± 0.0031%
Residual amount of glucagon remaining in tissues, % of instilled ([3]; Cornea, 0.2% glucagon): 0.2565 ± 0.0860%
Residual amount of glucagon remaining in tissues, % of instilled ([3]; Cornea, 1% glucagon): 0.5260 ± 0.1460%
Residual amount of glucagon remaining in tissues, % of instilled ([3]; Cornea, 5% glucagon): 0.7930 ± 0.2101%
Residual amount of glucagon remaining in tissues, % of instilled ([3]; Iris, 0.2% glucagon): 0.0202 ± 0.0080%
Residual amount of glucagon remaining in tissues, % of instilled ([3]; Iris, 1% glucagon): 0.0309 ± 0.0103%
Residual amount of glucagon remaining in tissues, % of instilled ([3]; Iris, 5% glucagon): 0.0322 ± 0.0073%
Residual amount of glucagon remaining in tissues, % of instilled ([3]; Lens, 0.2% glucagon): 0.0701 ± 0.0302%
Residual amount of glucagon remaining in tissues, % of instilled ([3]; Lens, 1% glucagon): 0.0542 ± 0.0143%
Residual amount of glucagon remaining in tissues, % of instilled ([3]; Lens, 5% glucagon): 0.0697 ± 0.0169%
Residual amount of glucagon remaining in tissues, % of instilled ([3]; Retina, 0.2% glucagon): 0.0028 ± 0.0007%
Residual amount of glucagon remaining in tissues, % of instilled ([3]; Retina, 1% glucagon): 0.0025 ± 0.0008%
Residual amount of glucagon remaining in tissues, % of instilled ([3]; Retina, 5% glucagon): 0.0045 ± 0.0019%
Residual amount of glucagon remaining in tissues, % of instilled, Total ([3]; 0.2% glucagon): 0.3612%
Residual amount of glucagon remaining in tissues, Amount, Total ([3]; 0.2% glucagon): 180.64 ng
Residual amount of glucagon remaining in tissues, % of instilled, Total ([3]; 1% glucagon): 0.6290%
Residual amount of glucagon remaining in tissues, Amount, Total ([3]; 1% glucagon): 1572.46 ng
Residual amount of glucagon remaining in tissues, % of instilled, Total ([3]; 5% glucagon): 0.9163%
Residual amount of glucagon remaining in tissues, Amount, Total ([3]; 5% glucagon): 11452.55 ng
blood glucagon plateau concentration ([4]; 25 ul of 1% glucagon instilled, plateau in 2 hrs): 37 ng/mL
blood concentration of glucagon reached ([4]; 25 ul of 5% glucagon (1250 ug) instilled, rising over 6 hrs): 130 ng/mL

Source: patent publication US5283236A, “Systemic delivery of polypeptides through the eye” (Orbon Corporation, priority 1992, dated 1994)
